# From patent US20120185955A1, “HEDGEHOG INHIBITOR ASSAY” (priority 2005, published 2012)
# “Also recorded” adds a separate entry of the source.
# System: Gli reporter activity in Sufu−/− MEFs
# Assay: 8×GliLuc luciferase reporter assay in Sufu−/− MEFs
# Type: cell-based, mouse
# Settings: 10 μM cyclopamine or 100 nM SAG for two days
# Experimental: For the luciferase reporter assays, 20,000 MEF cells were seeded into each well of a 24-well plate in MEF medium. The following day, cells were transfected using FuGENE 6 (Roche) with 300 ng of the luciferase reporter plasmids 8×GliLuc and 8×Gli^mutLuc (58) with or without 300 ng of the pMYC-SUFU expression plasmid (9), 300 ng of a constitutively active PKA catalytic subunit expression plasmid (59) or with 300 ng of the TOPflash and FOPflash reporter plasmids (Upstate Biotechnology), together with 50 ng the Renilla luciferase phRL-TK reporter (Promega) to monitor the transfection efficiency. […] The assays were conducted in triplicate and repeated at least three times. The values were normalized to the Renilla reporter before calculating relative levels.
structure (smiles),measurement,setting,value
CC1=C2C[C@H]3[C@@H](CC=C4C[C@@H](O)CC[C@@]43C)[C@@H]2CC[C@]12O[C@@H]1C[C@H](C)CN[C@H]1[C@H]2C [Cyclopamine],Effect on Gli reporter activity (8×GliLuc),,does not inhibit the pathway; also recorded: inactive
same,Effect on Gli reporter activity (8×GliLuc),listed as cyclopamine,no effect was observed
